In publication PMC5080452 (Bioorganic & Medicinal Chemistry, 2016) one finds BBB permeation prediction data, which are given here for 1 compound.

This data set in a line: PAMPA-BBB brain permeability assay. The following applies: class from PAMPA-BBB Pe.

Each structure is given as a SMILES string.

With `CC1=C[C@@H]2Cc3nc4cc(Cl)ccc4c(NCCCCCCCCCCC#N)c3[C@H](C1)C2`, the BBB permeation prediction result is listed as “CNS+ (compounds of high BBB permeation (CNS+): Pe (10^−6 cm s^−1) > 5.17)”.
